# The list shows a part of the results.
# Sequences of proteins named here, by UniProt entry; tags and fusion partners are left off.
# UniProt Q9Y5T5, whole entry: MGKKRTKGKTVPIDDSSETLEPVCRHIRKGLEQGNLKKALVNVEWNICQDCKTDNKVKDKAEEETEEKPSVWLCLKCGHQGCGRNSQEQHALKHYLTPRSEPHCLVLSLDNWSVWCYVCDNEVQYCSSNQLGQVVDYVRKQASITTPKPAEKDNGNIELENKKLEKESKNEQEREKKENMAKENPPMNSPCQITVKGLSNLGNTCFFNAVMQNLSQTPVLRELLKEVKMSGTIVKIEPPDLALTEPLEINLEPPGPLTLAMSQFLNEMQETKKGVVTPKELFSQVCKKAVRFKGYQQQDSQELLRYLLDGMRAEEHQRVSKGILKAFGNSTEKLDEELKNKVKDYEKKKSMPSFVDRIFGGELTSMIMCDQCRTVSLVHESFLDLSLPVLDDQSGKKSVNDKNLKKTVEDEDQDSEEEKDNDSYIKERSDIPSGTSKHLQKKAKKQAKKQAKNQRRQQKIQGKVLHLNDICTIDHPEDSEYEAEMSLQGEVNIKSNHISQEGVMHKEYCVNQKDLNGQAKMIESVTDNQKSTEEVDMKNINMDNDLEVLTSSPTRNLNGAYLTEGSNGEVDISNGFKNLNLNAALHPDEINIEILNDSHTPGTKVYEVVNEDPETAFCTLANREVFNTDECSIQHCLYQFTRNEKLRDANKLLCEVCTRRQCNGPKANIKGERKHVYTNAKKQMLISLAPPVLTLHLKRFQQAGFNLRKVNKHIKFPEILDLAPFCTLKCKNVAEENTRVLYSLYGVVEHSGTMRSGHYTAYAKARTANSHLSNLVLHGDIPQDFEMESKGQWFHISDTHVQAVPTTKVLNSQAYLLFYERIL
# Target: Ubiquitin carboxyl-terminal hydrolase 16 (UniProt Q9Y5T5)
# Assay: mass-spectrometry hit list; affinity purification or IP with mass spectrometry
substance,measurement,value
"Ubiquitin carboxyl-terminal hydrolase 27, A6NNY8",listed as a hit,yes

# Reference: publication PMC10687032
